From article PMC6445195, “Synthesis and biological evaluation of aminomethyl and alkoxymethyl derivatives as carbonic anhydrase, acetylcholinesterase and butyrylcholinesterase inhibitors” (Journal of Enzyme Inhibition and Medicinal Chemistry, 2017)

Sequences of proteins named here, by UniProt entry; tags and fusion partners are left off. Residues count along the entry.
UniProt P00915, whole entry: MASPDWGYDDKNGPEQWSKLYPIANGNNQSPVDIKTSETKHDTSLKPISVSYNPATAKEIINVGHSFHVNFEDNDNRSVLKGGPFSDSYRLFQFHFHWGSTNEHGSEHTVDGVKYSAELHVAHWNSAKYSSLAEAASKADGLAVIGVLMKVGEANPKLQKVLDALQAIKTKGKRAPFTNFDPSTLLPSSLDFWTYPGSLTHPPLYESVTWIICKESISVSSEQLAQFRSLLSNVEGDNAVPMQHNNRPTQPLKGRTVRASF
UniProt P22303, 32-614 limits assumed: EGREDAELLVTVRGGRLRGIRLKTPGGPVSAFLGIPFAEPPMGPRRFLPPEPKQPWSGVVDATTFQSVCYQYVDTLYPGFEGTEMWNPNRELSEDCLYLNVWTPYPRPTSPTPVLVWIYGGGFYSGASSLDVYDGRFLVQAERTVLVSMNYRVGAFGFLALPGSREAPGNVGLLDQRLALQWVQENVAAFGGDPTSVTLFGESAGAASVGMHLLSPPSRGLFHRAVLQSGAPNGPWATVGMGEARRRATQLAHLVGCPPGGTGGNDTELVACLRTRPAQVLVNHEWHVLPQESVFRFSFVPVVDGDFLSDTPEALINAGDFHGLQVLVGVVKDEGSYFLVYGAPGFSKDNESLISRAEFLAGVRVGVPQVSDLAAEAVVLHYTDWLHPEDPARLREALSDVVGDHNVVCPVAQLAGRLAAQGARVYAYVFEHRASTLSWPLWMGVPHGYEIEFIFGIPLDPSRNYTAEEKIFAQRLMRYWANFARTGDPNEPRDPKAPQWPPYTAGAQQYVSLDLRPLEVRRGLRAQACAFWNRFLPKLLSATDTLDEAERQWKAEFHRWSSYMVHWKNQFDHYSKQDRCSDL
UniProt P06276, 29-602 limits assumed: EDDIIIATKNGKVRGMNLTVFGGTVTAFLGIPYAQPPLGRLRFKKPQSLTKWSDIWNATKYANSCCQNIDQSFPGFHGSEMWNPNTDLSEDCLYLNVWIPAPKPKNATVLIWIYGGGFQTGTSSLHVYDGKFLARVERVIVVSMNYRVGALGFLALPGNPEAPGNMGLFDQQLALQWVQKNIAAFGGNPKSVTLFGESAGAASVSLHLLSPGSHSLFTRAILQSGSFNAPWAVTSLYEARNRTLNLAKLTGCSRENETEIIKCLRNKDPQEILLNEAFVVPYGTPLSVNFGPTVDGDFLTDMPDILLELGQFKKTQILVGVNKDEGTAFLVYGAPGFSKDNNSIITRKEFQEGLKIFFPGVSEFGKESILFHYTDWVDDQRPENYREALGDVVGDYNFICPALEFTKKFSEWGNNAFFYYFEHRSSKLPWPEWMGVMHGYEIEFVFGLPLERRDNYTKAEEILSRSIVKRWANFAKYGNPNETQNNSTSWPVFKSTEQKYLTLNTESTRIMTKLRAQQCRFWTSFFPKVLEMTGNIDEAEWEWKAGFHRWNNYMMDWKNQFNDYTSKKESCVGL

Key:
hCA I = hCA I (Homo sapiens, UniProt P00915); details: for IC50: read-out: IC50 hCA I, purified from human erythrocytes, PNA substrate, 22 °C; for Ki: read-out: Ki hCA I, three concentrations used
AChE = AChE (Homo sapiens, UniProt P22303); details: for AChE/BChE (proportion of AChE to BChE, selectivity): ratio of Ki AChE to Ki BChE; for IC50: read-out: IC50 AChE, Ellman, Tris/HCl pH 8.0, 25 °C; for Ki: read-out: Ki AChE
hCA II = hCA II (Homo sapiens, UniProt P00918); details: for IC50: read-out: IC50 hCA II, purified from human erythrocytes, PNA substrate, 22 °C; for Ki: read-out: Ki hCA II, three concentrations used
BChE = BChE (Homo sapiens, UniProt P06276); details: for IC50: read-out: IC50 BChE, Ellman, Tris/HCl pH 8.0, 25 °C; for Ki: read-out: Ki BChE

| Compound | IC50 (hCA I) [nM] | Ki (hCA I) [nM] | AChE/BChE (proportion of AChE to BChE, selectivity) (AChE) | IC50 (AChE) [nM] | Ki (AChE) [nM] | IC50 (hCA II) [nM] | Ki (hCA II) [nM] | IC50 (BChE) [nM] | Ki (BChE) [nM] |
| --- | --- | --- | --- | --- | --- | --- | --- | --- | --- |
| S=c1oc2ccccc2n1CN1CCCCC1 | 79 | 82 | 0.701 | 65 | 40 | 116 | 132 | 79 | 57 |
| S=c1sc2ccccc2n1CN1CCOC1 | 79 | 77 | 0.647 | 39 | 33 | 114 | 107 | 89 | 51 |
| CCOCn1c(=S)oc2ccccc21 | 119 | 95 | 0.852 | 63 | 75 | 141 | 146 | 93 | 88 |
| S=c1sc2ccccc2n1CN1CCOCC1 [Compound 1, N-oxazinomethylbenzothiazoline-2-thione] | 83 | 106 | 0.822 | 54 | 37 | 89 | 96 | 75 | 45 |
| S=c1oc2ccccc2n1CN1CCCOC1 | 98 | 99 | 1.22 | 50 | 61 | 137 | 135 | 94 | 50 |
| COCn1c(=S)oc2ccccc21 | 112 | 118 | 0.584 | 89 | 45 | 172 | 137 | 133 | 77 |
